Laboratory results taken from patent publication US20260209301A1, “Galanin-2 Receptor Agonists” (LIFEARC, priority 2022, published 2026).

By UniProt entry, the sequences of proteins in these tests, tags left out. Where a name states a change or a piece, a line headed by the entry shows the natural chain unless it says otherwise.
UniProt P47211: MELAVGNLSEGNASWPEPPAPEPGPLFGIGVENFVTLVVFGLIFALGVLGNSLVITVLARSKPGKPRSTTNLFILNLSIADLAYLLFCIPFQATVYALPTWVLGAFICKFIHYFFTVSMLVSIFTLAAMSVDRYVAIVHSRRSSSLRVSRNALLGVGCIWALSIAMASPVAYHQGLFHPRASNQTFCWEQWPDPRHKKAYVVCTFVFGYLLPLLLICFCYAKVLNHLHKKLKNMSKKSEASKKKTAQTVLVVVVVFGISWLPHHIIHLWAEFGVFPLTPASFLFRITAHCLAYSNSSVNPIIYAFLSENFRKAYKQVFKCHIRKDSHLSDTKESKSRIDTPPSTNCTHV

Key:
Assay type in all cases: cell-based
GALR1 [1] = biological target: T1, GALR1 (Homo sapiens, UniProt P47211); assay: cAMP HTRF assay, CHO GalR1 cells; parameters: expressed in transfected cells; host or cells: CHO (Flp-In, pcDNA5/FRT); details: for GalR1 activity (cAMP assay), warhead length: Table 6; for GalR1 cAMP pEC50: Table 3, n ≥ 3, highest concentration 1 μM (galnon 100 μM); for GalR1 cAMP IA (%): maximum response at highest concentration tested (1 μM, except galnon at 100 μM), relative to galanin
GALR1 [2] = biological target: T1, GALR1; assay: Luciferase reporter gene assay (SRE), HEK293 Gqi cells; parameters: expressed in transfected cells; host or cells: genetically modified HEK293 Gqi cells, transient; details: Table 5, quantity not named, n ≥ 3
human GalR1 = assay: cAMP HTRF assay, CHO GalR1 cells; details: functional assays GalR2 vs GalR1, Tables 2 and 3
GALR1 [3] = biological target: T1, GALR1; assay: β-arrestin recruitment, PathHunter CHO-K1 GALR1 cells; details: for GalR1 Beta Arrestin pEC50: Table 3, mean +/− standard deviation, n ≥ 3, highest concentration 1 μM (galnon 100 μM); for GalR1 Beta Arrestin IA (%): maximum response at highest concentration tested (1 μM, except galnon at 100 μM), relative to galanin
[4] = mean +/− standard deviation, highest concentration tested 10 μM

| Substance | GalR1 activity (cAMP assay), warhead length (GALR1 [1]; [4]) | pEC50 (GALR1 [2]) | selectivity GalR2 compared to GalR1 (in words) (human GalR1) | GalR1 Beta Arrestin pEC50 (GALR1 [3]) | GalR1 Beta Arrestin IA (%) (GALR1 [3]) | GalR1 cAMP pEC50 (GALR1 [1]; mean +/− standard deviation) | GalR1 activity (cAMP assay), linker variants (GALR1 [1]; Table 7, mean +/− standard deviation, highest concentration tested 10 μM) | GalR1 cAMP IA (%) (GALR1 [1]) |
| --- | --- | --- | --- | --- | --- | --- | --- | --- |
| Gal2-12FC: galanin 2-12, AEAAAKEAAAKA linker, human IgG1 FC; SEQ ID NO: 25 | 5.4 +/− 0.1 | < 6.00 |  |  |  |  |  |  |
| Gal2-13FC: galanin 2-13, AEAAAKEAAAKA linker, human IgG1 FC; SEQ ID NO: 7 | 5.3 +/− 0.2 | < 6.00 | GalR2-specific | N/A (N/A denotes activity failed to reach 50% of that of galanin.) | 0.8 +/− 1.9% | N/A (N/A denotes activity failed to reach 50% of that of galanin.) | 5.1 +/− 0.2 | 7.5 +/− 15.3% |
| Gal2-18FC: galanin 2-18, AEAAAKEAAAKA linker, human IgG1 FC; SEQ ID NO: 26 | 6.3 +/− 0.3 |  | GalR2-preferring | N/A (N/A denotes activity failed to reach 50% of that of galanin.) | 27.3 +/− 5.2% | 6.3 +/− 0.3 |  | 59.8 +/− 15.7% |
| Gal2-24FC: galanin 2-24, AEAAAKEAAAKA linker, human IgG1 FC; SEQ ID NO: 27 | 6.5 +/− 0.3 |  | GalR2-preferring | N/A (N/A denotes activity failed to reach 50% of that of galanin.) | 44.9 +/− 8.4% | 6.5 +/− 0.3 |  | 65.8 +/− 10.7% |
| Gal2-30FC: galanin 2-30, AEAAAKEAAAKA linker, human IgG1 FC; SEQ ID NO: 28 | 7.0 +/− 0.4 | < 6.00 | GalR2-preferring | N/A (N/A denotes activity failed to reach 50% of that of galanin.) | 42.8 +/− 8.5% | 7.0 +/− 0.4 |  | 80.2 +/− 14.8% |

pEC50: −log10 of the molar value.
